# Values quoted from earlier work as cited in patent US5266571A, “Treatment of hemorrhoids with 5-HT2 antagonists” (priority 1992, dated 1993).
# Tested on: 5-HT2 receptor
# Conditions: background statement; cited from earlier work
smiles,measurement,value
CN1CCN2c3ccccc3Cc3ccccc3C2C1 (stereo not shown) [mianserin],inhibition of modulation of phosphatidylinositol turnover by 5-HT2 receptor,inhibited
